Assay results as given in BindingDB's records for US10336717, “Inhibitors of beta-secretase” (2019).

Molecular target: Beta-secretase 1 (Homo sapiens, UniProt P56817)
Experiment: BACE Assay

Question: How did the IC50 turn out when `CO[C@H]1CC[C@]2(CC1)Cc1ccc(Br)cc1C21N=C(N)N(C)C1=O` (stereo partly specified) was run?
Answer: 32.3 nM
